Amino acid sequences for entries named in this document (tags omitted). Residues count along the entry.
UniProt P34969, 1-445 isoform P34969-2: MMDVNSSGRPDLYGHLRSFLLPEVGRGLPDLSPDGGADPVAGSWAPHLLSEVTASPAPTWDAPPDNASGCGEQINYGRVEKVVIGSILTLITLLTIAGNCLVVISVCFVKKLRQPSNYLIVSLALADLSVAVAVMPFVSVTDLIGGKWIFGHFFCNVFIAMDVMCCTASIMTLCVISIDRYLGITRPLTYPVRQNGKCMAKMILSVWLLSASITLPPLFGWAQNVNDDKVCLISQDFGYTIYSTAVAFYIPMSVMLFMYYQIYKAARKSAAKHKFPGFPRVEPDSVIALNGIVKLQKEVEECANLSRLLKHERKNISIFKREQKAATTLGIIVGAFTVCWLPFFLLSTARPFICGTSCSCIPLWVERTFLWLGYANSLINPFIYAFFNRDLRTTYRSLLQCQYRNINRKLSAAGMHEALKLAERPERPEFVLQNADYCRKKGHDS

In publication PMC4186431 (Pharmacology Research & Perspectives, 2013):

Experiments:
human 5-HT7(a) receptor [1] = target: T1, human 5-HT7(a) receptor (Homo sapiens, UniProt P34969); test: cAMP assay, agonist effects in HEK-hu5-HT7 cells; type: cell-based; details: 100 nmol/L, data not shown
Description: (§1) cAMP levels were quantified using the homogeneous time-resolved fluorescence (HTRF)-based cAMP dynamic kit (Cisbio, Bioassays, Codolet, France). […] In all cases, basal cAMP levels were determined in control wells in the absence of agonist. The effects of the compounds on forskolin-stimulated adenylate cyclase activity were evaluated either at a single concentration (parental HEK293 cells) or by using concentration–response curves (HEK-hu5-HT7 cells). Cells were incubated in the absence (control) or presence of the compounds, at the concentrations indicated, in assay buffer for 15 min at 37°C prior to the addition of forskolin and further incubation for 15 min. Basal cAMP levels were determined in control wells in the absence of forskolin. After proceeding with the subsequent assay steps according to the manufacturer's protocol, the fluorescence emission intensity ratio at 665/620 nm wavelength was measured in an Ultra Evolution 384 microplate reader (TECAN, Männedorf, Switzerland).

human 5-HT7(a) receptor [2] = target: T1, human 5-HT7(a) receptor; test: 5-CT-stimulated cAMP assay in the presence of the compounds (antagonist curves, Schild analysis), HEK-hu5-HT7 cells; type: cell-based; details: 5 nmol/L 5-CT
Description: as §1, with “forskolin.” for “forskolin. After proceeding with the subsequent assay steps according to the manufacturer's protocol, the fluorescence emission intensity ratio at 665/620 nm wavelength was measured in an Ultra Evolution 384 microplate reader (TECAN, Männedorf, Switzerland).”
The data were analyzed using GraphPad Prism software v4.0 (GraphPad Software Inc., San Diego, CA). Receptor density (Bmax) and the dissociation constant (Kd) of the radioligand were determined by nonlinear regression curve fitting of saturation binding curves to a one-site binding (hyperbola) model. […] The IC50 values were determined by nonlinear regression curve fitting to sigmoidal dose–response or sigmoidal dose–response (variable slope) models, as indicated. […] Results are expressed as the mean values ± SEM from the number of independent experiments indicated.

## NCCc1c[nH]c2ccc(C(N)=O)cc12 [5-CT, 5-carboxamidotryptamine, reference compound]
Human 5-HT7(a) receptor [1]
  Increase of cAMP levels above basal levels: more than 50 times above basal levels
Human 5-HT7(a) receptor [2]
  cAMP response over basal as percent of the response elicited by 1 μmol/L 5-CT: 44.3 ± 1.6%
